PubChem BioAssay (Tox21)
Values joined by “and” are separate entries in the source; they are usually repeats but may differ in a detail not shown here. Identical values can stand only once. The list shows a part of the results, in another mix than the full data. Results filed as inconclusive are left out. Active and inactive are the calls of the source. Calls follow the shape of the full dose curve.

Experiment: cAMP Responsive Elements (CRE) small molecule agonists, cell-based qHTS assay (AID 1963590)
Settings: CRE-bla HEK293T, beta-lactamase FRET ratio, 3 h; at 42.5 µM (top of the series)
Description: U.S. Tox21 Program National Center for Advancing Translational Sciences [NCATS] Division of Preclinical Innovation [DPI] U.S. Environmental Protection Agency [EPA] National Institutes of Environmental Health Sciences [NIEHS] National Toxicology Program [NTP] U.S. Food and Drug Administration [FDA] Tox21 Assay Overview: CREB (cyclic-AMP Responsive Element Binding Protein) is a cellular transcription factor. It binds to certain DNA sequences called cAMP Responsive Elements (CRE) and regulates the transcription of the genes. […] This cell line can be used to find agonists/antagonists of the cyclic AMP signaling pathway. The activation of the report gene under culture conditions can be detected by fluorescence intensity. This cell line has been used to screen the Tox21 10K compound library to identify agonists that induce oxidative stress.
Tox21 Assay Protocol Summary: CRE-bla Hek 293T cells were suspended in assay medium (DMEM containing 10% dialyzed FBS, 0.1 mM NEAA, 1 mM sodium pyruvate and 25 mM HEPES) and dispensed at 2,000 cells/5 uL /well into 1536-well black wall/clear bottom plates using a Multidrop Combi (ThermoFisher Scientific, Waltham, MA) dispenser. After the assay plates were incubated at 37 C/5% CO2 for 18 hrs, 23 nL of compounds dissolved in DMSO, positive controls or DMSO only was transferred to the assay plate by a pintool workstation (Kalypsys, San Diego, CA). After the plates were incubated at 37 C/5% CO2 for 3 hrs, 1 uL of LiveBLAzer B/G FRET substrate (Invitrogen, Carlsbad, CA) was added to each well using Bioraptr Flying Reagent Dispenser (FRD, Aurora Discovery, San Diego, CA). The plates were incubated at room temperature for 2 h.
% is scaled to controls: 0 for no effect and ±100 for the full control effect.

| Compound | activation |
| --- | --- |
| C/C1=C2N=C(/C=C3N=C(/C(C)=C4\[N-][C@@](C)([C@@H]5N=C1[C@](C)(CCC(=O)NC[C@@H](C)OP(=O)([O-])O[C@H]1[C@@H](O)[C@@H](n6cnc7cc(C)c(C)cc76)O[C@@H]1CO)[C@H]5CC(N)=O)[C@@](C)(CC(N)=O)[C@@H]4CCC(N)=O)[C@@](C)(CC(N)=O)[C@@H]\3CCC(N)=O)C(C)(C)[C@@H]/2CCC(N)=O.[C-]#N.[Co+3] | inactive: 0.508% |
| CCOP(=O)(CC)Oc1ccc([N+](=O)[O-])cc1 (stereo not given) | inactive: 0.436% |
| OCCSCCO | inactive: 0.379% |

Same assay, conditions: CRE-bla HEK293T, beta-lactamase FRET ratio, 3 h; at 92.4 µM (top of the series)

| Compound | activation |
| --- | --- |
| O=[N+]([O-])OCC(CO[N+](=O)[O-])(CO[N+](=O)[O-])CO[N+](=O)[O-] | inactive: 0.126% |
| CN(C)CCCl | inactive: -0.301% |
| Cc1ccc([N+](=O)[O-])cc1[N+](=O)[O-] | inactive: 1.09% and inactive: -1.98% |
| N=C(N)N[N+](=O)[O-] | inactive: -0.76% |
| COP(C)(=O)OC | inactive: -0.543% and inactive: 0.642% |
| N#CBr | inactive: -0.619% |
| CC(C)N(CCO)C(C)C | inactive: 1.26% |
| O=[N+]([O-])[O-].[NH4+] | inactive: -0.0665% and inactive: 0.319% |
| Cc1c([N+](=O)[O-])cccc1[N+](=O)[O-] | inactive: 3.9% and inactive: 0.14% |
| OCCSCCO | inactive: 3.49% |
| CC(C)OP(C)(=O)OC(C)C | inactive: -0.805% and inactive: 0.0652% |
| CCN(CC)CCCl | inactive: 0.16% |
| CCOP(=O)(CC)OCC | inactive: -1.57% |
| COc1ccc([N+](=O)[O-])cc1[N+](=O)[O-] | inactive: 0.119% |
| O=[N+]([O-])c1cccc([N+](=O)[O-])c1 | inactive: -1.62% |
| [NH4+].[O-][Cl+3]([O-])([O-])[O-] | inactive: -0.544% and inactive: -0.111% |
| CP(=O)(O)OCCC[Si](O)(O)O | inactive: 0.338% |
